Protein sequences, listed by entry. Tags and fused reporters are not part of them. Residues count along the entry.
UniProt P06276, 29-602 limits assumed: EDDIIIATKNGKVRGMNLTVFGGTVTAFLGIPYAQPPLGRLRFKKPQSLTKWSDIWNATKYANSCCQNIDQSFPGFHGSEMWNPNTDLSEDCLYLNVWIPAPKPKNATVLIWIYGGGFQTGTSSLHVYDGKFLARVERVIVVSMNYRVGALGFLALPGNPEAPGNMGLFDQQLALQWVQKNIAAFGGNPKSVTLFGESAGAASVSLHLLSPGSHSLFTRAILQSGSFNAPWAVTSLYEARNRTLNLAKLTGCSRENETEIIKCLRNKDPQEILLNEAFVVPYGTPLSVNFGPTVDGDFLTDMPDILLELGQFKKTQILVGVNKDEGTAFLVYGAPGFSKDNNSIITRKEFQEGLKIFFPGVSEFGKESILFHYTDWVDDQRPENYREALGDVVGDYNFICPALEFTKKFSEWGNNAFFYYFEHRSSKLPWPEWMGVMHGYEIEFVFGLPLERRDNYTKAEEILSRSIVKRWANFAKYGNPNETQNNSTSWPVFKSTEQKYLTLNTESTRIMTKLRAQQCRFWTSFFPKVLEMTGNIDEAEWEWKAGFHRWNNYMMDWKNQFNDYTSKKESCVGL

According to patent US20230357154A1 (priority 2019, published 2023):

How the values were obtained:
[1] = target: butyrylcholinesterase (BChE) (Homo sapiens, UniProt P06276); test: In vitro enzyme kinetics; type: biochemical; details: rate of first chemical step
[2] = whole brain; for t1/2 clearance (pooled): pooled across mouse strains

## Cn1c(C(=O)OCc2ccc(I)cc2)cccc1=O [TRV7006, (p-Iodophenyl)methyl 1-methyl-6-oxo-1H-pyridine-2-carboxylate]
[1]
  kcat: 3000 min⁻¹
[2]; BChE-KO mice
  t1/2 clearance: 3.27 ± 0.93 min
[2]
  t1/2 clearance (pooled): 4.36 ± 0.75 min

## O=C(OCc1ccc(I)cc1)c1cccc(=O)[nH]1 [TRV7005, (p-Iodophenyl)methyl 6-oxo-1H-pyridine-2-carboxylate]
[1]
  kcat: 4900 min⁻¹
[2]; 5XFAD-BChE-KO mouse
  t1/2 clearance: 10.38 min
[2]
  t1/2 clearance (pooled): 7.23 ± 0.95 min

## COc1cccc(C(=O)OCc2ccc(I)cc2)n1 [TRV7019, (p-iodophenyl)methyl 6-methoxy-2-pyridinecarboxylate]
[1]
  kcat: 80000 min⁻¹
[2]
  t1/2 clearance (pooled): 2.50 ± 0.41 min

Read-outs that look alike come from different tables or passages of the source.
